{
  "sequences": {"note": "The chains behind the UniProt entries cited, without tags or fusion partners.", "UniProt Q8TDV0, whole entry": "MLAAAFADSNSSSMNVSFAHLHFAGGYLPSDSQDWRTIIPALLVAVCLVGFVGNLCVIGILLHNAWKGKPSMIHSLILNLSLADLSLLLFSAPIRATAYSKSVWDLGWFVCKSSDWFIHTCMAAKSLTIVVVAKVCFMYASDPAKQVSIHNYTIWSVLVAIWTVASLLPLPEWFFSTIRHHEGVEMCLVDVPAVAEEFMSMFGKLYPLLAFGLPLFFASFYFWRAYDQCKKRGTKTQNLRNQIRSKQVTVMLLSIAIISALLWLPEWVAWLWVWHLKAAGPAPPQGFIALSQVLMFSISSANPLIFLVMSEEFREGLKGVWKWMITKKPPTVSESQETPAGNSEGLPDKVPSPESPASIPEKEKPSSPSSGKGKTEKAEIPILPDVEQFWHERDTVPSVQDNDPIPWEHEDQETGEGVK"},
  "source": "PubChem BioAssay AID1508602",
  "about": "(The Scripps Research Institute Molecular Screening Center, 2020)",
  "note": "The entries are a selection whose mix differs from that of the whole data set. Some structures show a salt or complex split into parts, the way the source records it. The source made the active and inactive calls. Rule as the data show it: active = activation above about 4.9%; inactive = the rest.",
  "data": [
    {"target": "G-protein coupled receptor 151 (Homo sapiens) (UniProt Q8TDV0)", "assay": "activates the human receptor GPR151, primary screen, cell-based, PathHunter beta-arrestin, luminescence (AID 1508602);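 also: 0% = median of compound wells and 100% = cells with positive control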", "settings": "PathHunter beta-arrestin GPR151 cells, at 11.2 µM, stronger effect = higher value", "values": [
      {"compound": "COCC(CN(C)[N+](=O)[O-])O[N+](=O)[O-]", "note": "(configuration not stated)", "activation": "inactive: 2.77%"},
      {"compound": "O=[N+]([O-])c1cc([N+](=O)[O-])c(N2CCCCCC2)c([N+](=O)[O-])c1", "activation": "inactive: -0.666%"},
      {"compound": "CP(=O)(OCCOc1ccccc1)OCCOc1ccccc1", "activation": "inactive: -1.61%"},
      {"compound": "CP(=O)(Nc1ccc(Cl)cc1Cl)Oc1ccccc1", "note": "(configuration not stated)", "activation": "inactive: -0.136%"},
      {"compound": "CCCCOc1ccc(NP(C)(=O)Oc2ccccc2OC)cc1", "note": "(configuration not stated)", "activation": "inactive: -0.64%"},
      {"compound": "C/C1=C2N=C(/C=C3N=C(/C(C)=C4\\[N-][C@@](C)([C@@H]5N=C1[C@](C)(CCC(=O)NC[C@@H](C)OP(=O)(O)O[C@H]1[C@@H](O)[C@@H](n6cnc7cc(C)c(C)cc76)O[C@@H]1CO)[C@H]5CC(N)=O)[C@@](C)(CC(N)=O)[C@@H]4CCC(N)=O)[C@@](C)(CC(N)=O)[C@@H]\\3CCC(N)=O)C(C)(C)[C@@H]/2CCC(N)=O.[C-]#N.[Co+3]", "activation": "inactive: -8.99%"},
      {"compound": "COc1ccccc1OP(C)(=O)Nc1ccc(C)c(C)c1", "note": "(configuration not stated)", "activation": "inactive: 1.45%"},
      {"compound": "COc1ccc(OP(C)(=O)Nc2ccccc2Br)cc1", "note": "(configuration not stated)", "activation": "inactive: 0.245%"},
      {"compound": "N1=Nc2nonc2N=Nc2nonc21", "activation": "inactive: -0.0652%"},
      {"compound": "C/C1=C2N=C(/C=C3N=C(/C(C)=C4\\[N-]C(C(CC(N)=O)C4(C)CCC(=O)NCC(C)OP(=O)([O-])OC4C(CO)OC(n5cnc6cc(C)c(C)cc65)C4O)C4(C)N=C1C(CCC(N)=O)C4(C)CC(N)=O)C(CCC(N)=O)C\\3(C)C)C(CCC(N)=O)C/2(C)CC(N)=O.C/C1=C2N=C(/C=C3N=C(/C(C)=C4\\[N-]C(C(CC(N)=O)C4(C)CCC(=O)NCC(C)OP(=O)([O-])OC4C(CO)OC(n5cnc6cc(C)c(C)cc65)C4O)C4(C)N=C1C(CCC(N)=O)C4(C)CC(N)=O)C(CCC(N)=O)C\\3(C)C)C(CCC(N)=O)C/2(C)CC(N)=O.[C-]#N.[Co+3]", "note": "(configuration not stated)", "activation": "inactive: -7.17%"},
      {"compound": "CN(c1nc2nonc2nc1N(C)[N+](=O)[O-])[N+](=O)[O-]", "activation": "inactive: -0.554%"},
      {"compound": "CC(C)c1ccc(OP(C)(=O)O)cc1", "activation": "inactive: 0.0803%"},
      {"compound": "NNc1c([N+](=O)[O-])cc([N+](=O)[O-])cc1[N+](=O)[O-]", "activation": "inactive: -0.116%"},
      {"compound": "Nc1nonc1-[n+]1nc2nonc2[n-]1", "activation": "inactive: 3.96%"},
      {"compound": "CP(=O)(Nc1cccc(Cl)c1)Nc1cccc(Cl)c1", "activation": "inactive: -0.3%"},
      {"compound": "CCOC(=O)c1ccc(NP(C)(=O)Oc2ccc(Cl)cc2)cc1", "note": "(configuration not stated)", "activation": "inactive: -0.47%"},
      {"compound": "CP(=O)(OC12CC3CC(CC(C3)C1)C2)OC12CC3CC(CC(C3)C1)C2", "activation": "inactive: -0.916%"},
      {"compound": "O=[N+]([O-])c1cc([N+](=O)[O-])c(Nc2ccccc2)c([N+](=O)[O-])c1", "activation": "inactive: 1.1%"},
      {"compound": "[O-][n+]1onc2c1c1no[n+]([O-])c1c1no[n+]([O-])c21", "activation": "inactive: -3.35%"},
      {"compound": "Cc1c([N+](=O)[O-])cc([N+](=O)[O-])c(Nc2ccc(C(=O)O)cc2)c1[N+](=O)[O-]", "activation": "inactive: -3.26%"},
      {"compound": "COc1cccc(C(OP(C)(=O)O)C(F)(F)F)c1", "note": "(configuration not stated)", "activation": "inactive: 1.87%"},
      {"compound": "CP(=O)(Nc1ccc(Cl)cc1)Oc1ccc(F)cc1", "note": "(configuration not stated)", "activation": "inactive: -0.655%"},
      {"compound": "CN(C)/C=C(\\C=O)c1c([N+](=O)[O-])cc([N+](=O)[O-])cc1[N+](=O)[O-]", "activation": "inactive: 1.63%"},
      {"compound": "CN(C)C(=O)c1c([N+](=O)[O-])cc([N+](=O)[O-])cc1[N+](=O)[O-]", "activation": "inactive: 0.537%"},
      {"compound": "O=[N+]([O-])c1cc([N+](=O)[O-])c(Nc2ccccc2CO)c([N+](=O)[O-])c1", "activation": "inactive: 0.398%"},
      {"compound": "CP(=O)(Nc1ccc(F)c(Cl)c1)Oc1ccccc1", "note": "(configuration not stated)", "activation": "inactive: -0.214%"},
      {"compound": "O=C(Nc1ccccc1O)c1c([N+](=O)[O-])cc([N+](=O)[O-])cc1[N+](=O)[O-]", "activation": "inactive: -1.44%"},
      {"compound": "CN1CCCC1=C1c2cc([N+](=O)[O-])cc([N+](=O)[O-])c2-c2c1cc([N+](=O)[O-])cc2[N+](=O)[O-]", "activation": "inactive: 0.361%"},
      {"compound": "CCc1ccc(OP(C)(=O)Nc2ccc(I)cc2)cc1", "note": "(configuration not stated)", "activation": "inactive: -0.696%"},
      {"compound": "COc1ccc(OP(C)(=O)Nc2ccc(Br)cc2)cc1", "note": "(configuration not stated)", "activation": "inactive: 0.948%"},
      {"compound": "O=[N+]([O-])c1cc([N+](=O)[O-])c(NCc2ccccc2)c([N+](=O)[O-])c1", "activation": "inactive: -1.6%"},
      {"compound": "COc1ccccc1OP(C)(=O)Nc1c(C)n(C)n(-c2ccccc2)c1=O", "note": "(configuration not stated)", "activation": "inactive: 0.424%"},
      {"compound": "OCCSCCO", "activation": "inactive: 1.31%"},
      {"compound": "CP(=O)(Oc1ccccc1)N1CCOC1=O", "note": "(configuration not stated)", "activation": "inactive: -0.364%"},
      {"compound": "O=[N+]([O-])c1cc([N+](=O)[O-])c(N2CCOCC2)c([N+](=O)[O-])c1", "activation": "inactive: -0.727%"},
      {"compound": "COC(=O)Nc1nc2ccccc2[nH]1.O=C1CCCN1c1ccc(S(=O)(=O)O)cc1[N+](=O)[O-]", "activation": "inactive: -0.456%"},
      {"compound": "CCN(CC)c1c([N+](=O)[O-])cc([N+](=O)[O-])cc1[N+](=O)[O-]", "activation": "inactive: 0.231%"},
      {"compound": "CP(=O)(Nc1ccc2c(c1)OCCO2)Oc1ccccc1", "note": "(configuration not stated)", "activation": "inactive: 0.872%"},
      {"compound": "Cc1ccccc1NP(C)(=O)Nc1ccccc1C", "activation": "inactive: -1.23%"},
      {"compound": "COc1ccc(OP(C)(=O)Nc2ccccc2)cc1", "note": "(configuration not stated)", "activation": "inactive: -1%"},
      {"compound": "[N-]=[N+]=NCN1c2nonc2N(CN=[N+]=[N-])c2nonc21", "activation": "inactive: -0.966%"},
      {"compound": "Cc1c([N+](=O)[O-])c(C)c([N+](=O)[O-])c(C)c1[N+](=O)[O-]", "activation": "inactive: 2.09%"},
      {"compound": "Cc1ccc(Cl)c(OP(C)(=O)Nc2ccc(F)cc2)c1", "note": "(configuration not stated)", "activation": "inactive: 0.179%"},
      {"compound": "CP(=O)(O)OC(c1ccccc1)C(F)(F)C(F)(F)F", "note": "(configuration not stated)", "activation": "inactive: -0.404%"},
      {"compound": "O=[N+]([O-])c1cc([N+](=O)[O-])c(NCC2CCS(=O)(=O)C2)c([N+](=O)[O-])c1", "note": "(configuration not stated)", "activation": "inactive: -0.558%"},
      {"compound": "Cc1cc(-c2cccc3ccccc23)c(C)cn1.O=[N+]([O-])c1cc([N+](=O)[O-])c(O)c([N+](=O)[O-])c1", "activation": "inactive: 0.729%"},
      {"compound": "CP(=O)(O)Oc1cccc(Cl)c1Cl", "activation": "active: 4.92%"},
      {"compound": "C=CCN1CCN(CCOC(=O)C(O)(c2ccccc2)c2ccccc2)CC1", "activation": "inactive: 0.617%"},
      {"compound": "O=[N+]([O-])c1ccc(Nc2c([N+](=O)[O-])cc([N+](=O)[O-])cc2[N+](=O)[O-])cc1", "activation": "inactive: -0.495%"},
      {"compound": "CN(C)CCOC(=O)C(O)(c1ccccc1)C1CCCCC1", "note": "(configuration not stated)", "activation": "inactive: 0.321%"},
      {"compound": "O=[N+]([O-])c1cc([N+](=O)[O-])c(Nc2c([N+](=O)[O-])cc([N+](=O)[O-])cc2[N+](=O)[O-])c([N+](=O)[O-])c1", "activation": "inactive: -1.36%"},
      {"compound": "CC(=O)OC1(C#N)CN2CCC1CC2", "note": "(configuration not stated)", "activation": "inactive: 1.58%"},
      {"compound": "COc1ccc(NP(C)(=O)Oc2ccccc2OC)cc1", "note": "(configuration not stated)", "activation": "inactive: -0.804%"},
      {"compound": "CP(=O)(O)OC(c1ccccc1)C(Cl)(Cl)Cl", "note": "(configuration not stated)", "activation": "inactive: 0.782%"},
      {"compound": "Cc1ccc(NP(C)(=O)Oc2ccc(Cl)cc2)cc1", "note": "(configuration not stated)", "activation": "inactive: 0.859%"},
      {"compound": "COc1cc2c(cc1NP(C)(=O)Oc1ccccc1)oc1ccccc12", "note": "(configuration not stated)", "activation": "inactive: 0.416%"},
      {"compound": "CP(=O)(Nc1ccccc1)Oc1ccc(F)cc1", "note": "(configuration not stated)", "activation": "inactive: -1.09%"},
      {"compound": "O=C(c1c([N+](=O)[O-])cc([N+](=O)[O-])cc1[N+](=O)[O-])N1CCOCC1", "activation": "inactive: 0.135%"},
      {"compound": "CCOC(=O)c1ccc(NP(C)(=O)Oc2ccc(F)cc2)cc1", "note": "(configuration not stated)", "activation": "inactive: -0.0097%"},
      {"compound": "Cc1ccc(Cl)c(OP(C)(=O)Nc2cccnc2)c1", "note": "(configuration not stated)", "activation": "inactive: 0.151%"},
      {"compound": "O=C(OCCN1CCN(CCOCc2ccccc2)CC1)C(O)(c1ccccc1)c1ccccc1", "activation": "inactive: 1.23%"},
      {"compound": "CP(=O)(Nc1cccnc1)Oc1ccc(Cl)cc1", "note": "(configuration not stated)", "activation": "inactive: 0.738%"},
      {"compound": "Cc1cc([N+](=O)[O-])c(NCC(C)([N+](=O)[O-])[N+](=O)[O-])c([N+](=O)[O-])c1[N+](=O)[O-]", "activation": "inactive: 1.13%"},
      {"compound": "CCP1(=O)Oc2cc(C(C)(C)C)cc(C(C)(C)C)c2O1", "note": "(configuration not stated)", "activation": "inactive: 0.856%"},
      {"compound": "Nc1c([N+](=O)[O-])cc([N+](=O)[O-])c2nonc12", "activation": "inactive: 0.455%"},
      {"compound": "C=CCNc1c([N+](=O)[O-])cc([N+](=O)[O-])c(C)c1[N+](=O)[O-]", "activation": "inactive: 0.0096%"},
      {"compound": "CP(=O)(Nc1ccccc1F)Oc1ccccc1", "note": "(configuration not stated)", "activation": "inactive: 2.92%"}
    ]}
  ]
}
